Source: US20090117177A1, “Echogenic microbubbles and microemulsions for ultrasound-enhanced nanoparticle-mediated delivery of agents” (priority 2005, published 2009)

Assay: Particle size distribution by dynamic light scattering (Zetasizer3000)

Substance: Poly(ethylene oxide)-block-poly(caprolactone) [PEG2000-PCL2000]
- stability upon heating: higher stability
